According to paper PMC8062000, “High-throughput screening of the ReFRAME, Pandemic Box, and COVID Box drug repurposing libraries against SARS-CoV-2 nsp15 endoribonuclease to identify small-molecule inhibitors of viral activity” (PLoS ONE, 2021):

Target: SARS-CoV-2 nsp15 endoribonuclease (endoU) (Severe acute respiratory syndrome coronavirus 2, UniProt P0DTD1)
Experiment: biochemical
Conditions: read-out: 1° FRET Assay % inhibition

COc1cccc2c1C(=O)c1c(O)c3c(c(O)c1C2=O)C[C@@](O)(C(=O)CO)C[C@@H]3O[C@H]1C[C@H](N)[C@H](O)[C@H](C)O1 [Doxorubicin]
inhibition at 10 µM: 57%
